Measured affinities in a library of Ab-14 light chain variants

Reference: Engelhart et al. 2022, doi:10.1038/s41597-022-01779-4. File: FLAb, binding data.

Target peptide (SARS-CoV-2 spike, HR2 region): PDVDLGDISGINAS

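The parent was found by panning a naive human phage display library on the peptide. In library AAYL50, one, two or three CDR residues were substituted; doubles and triples were drawn at random. The assay is AlphaSeq: two haploid yeast populations carry antibody and antigen on their surface. After mating in shaken culture at 30 °C for 16 h, diploids were selected and their barcode pairs sequenced. Read counts were normalised to the haploid input and turned into Kd by a linear fit to BCL2-family pairs of known affinity, for each replicate. The assay was run in three technical replicates.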

Parent: Ab-14, a human scFv built as VH, a (GGGGS)3 linker, VL. Only the CDRs of the light chain vary.
VH: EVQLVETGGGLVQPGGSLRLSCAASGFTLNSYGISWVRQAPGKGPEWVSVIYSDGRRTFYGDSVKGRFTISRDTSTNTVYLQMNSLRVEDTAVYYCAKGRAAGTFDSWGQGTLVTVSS
VL: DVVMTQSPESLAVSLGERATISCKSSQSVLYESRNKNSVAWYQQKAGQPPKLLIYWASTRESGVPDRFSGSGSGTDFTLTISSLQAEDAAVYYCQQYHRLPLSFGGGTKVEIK

Variants are written as CDR1, CDR2 and CDR3 of the light chain (limits as in the source). Parent: KSSQSVLYESRNKNSVA, WASTRES, QQYHRLPLS.
This list gathers variants with a substitution at R34 (VL, numbered from residue 1).
The read-out is the apparent dissociation constant on a log10 scale (nM): the lower, the stronger.
Averages over replicates are reported, and they cover detected replicates only.
"nd" means that the variant was in the library but no mating with the target was seen in that replicate; the authors take this as a sign of poor binding, and no number exists.
As a blank, each scFv also met three strains without target: over library AAYL50, 18% of these pairings were detected, typically at 4.19 and seldom below 2.99.

KSNQSVLYESWNKNSVA | WASTRES | IQYHRLPLS: nd, nd, nd.
KSAQSVLYESINKNSVA | WASTRES | QQKHRLPLS: nd, nd, nd.
KSSQSTLYESDNKNSVA | WASTRHS | QQYHRLPLS: 0.43, 0.63, 0.90 (mean 0.65).
KSSHSVLYESINKNSVA | WTSTRES | QQYHRLPLS: 0.94, 0.90, 0.86 (mean 0.90).
KSSQSVLYESGNKNSVA | DASTRES | QQYHRLPLI: 0.45, 0.60, 0.50 (mean 0.51).
KSSQSVLYESSNKNSVA | WASSRES | QQYHRLPCS: 1.93, 1.69, 1.74 (mean 1.79).
KSSQSVLYESKNKNSVA | WASTRES | ETYHRLPLS: 3.30, 2.51, 2.77 (mean 2.86).
KSSQSVLYESFWKNSVA | WQSTRES | QQYHRLPLS: 5.66, 3.85, 3.94 (mean 4.48).
KSSQSVLYESDNKNSVA | WASPRES | QQYHRLPLS: nd, 4.25, nd.
KSSQSVLYGSPNKNSVA | WASTRES | QQKHRLPLS: 1.14, 1.35, 1.46 (mean 1.32).
KSSQSELYESANKGSVA | WASTRES | QQYHRLPLS: 2.27, 2.29, 2.66 (mean 2.41).
KSSQSVLYESDNKNSVA | WASAREC | QQYHRLPLS: 2.76, 2.76, 2.26 (mean 2.59).
KSSQSVLYESPNKNEVA | WASTRES | QQYHRLPLR: 2.97, nd, nd.
KSSQSVLHESQNKNSVA | WASTRES | QQYHGLPLS: 1.74, 1.69, 1.82 (mean 1.75).
KSSQSVLYESENKNSVA | WAKTRPS | QQYHRLPLS: 2.67, 2.59, 2.56 (mean 2.61).
KSSQSVLYESINKNSVA | WASTRES | QDYHRLPES: nd, nd, nd.
KSSQSVLYESKNKNSVA | WARTRES | QQSHRLPLS: 1.88, 2.26, 1.60 (mean 1.91).
KSNLSVLYESYNKNSVA | WASTRES | QQYHRLPLS: 1.13, 1.30, 0.98 (mean 1.14).
KSSQSVLYESDNKNSVA | WPSTRES | QQYARLPLS: 3.26, nd, 3.49 (mean 3.38).
KFSQSVLYESCNKNSVA | WASTRES | SQYHRLPLS: 1.70, 1.92, 2.68 (mean 2.10).
KSSQSVLYEPGNKNSVA | WASTRES | QQYHRDPLS: 1.28, 1.43, 1.27 (mean 1.33).
KSSQSWLYESCNKNSVA | WASTREF | QQYHRLPLS: 3.18, 2.96, 2.23 (mean 2.79).
KSSQSVIYESWNKNSVA | WASTRES | LQYHRLPLS: nd, nd, nd.
KSSQSVLYESSTWNSVA | WASTRES | QQYHRLPLS: 0.78, 0.93, 0.75 (mean 0.82).
KSSQSVLYESVNKSSVA | WASTRES | QQYHRLPLE: 0.24, 0.46, 0.36 (mean 0.35).
KPSQSYLYESMNKNSVA | WASTRES | QQYHRLPLS: 1.26, 1.46, 1.58 (mean 1.43).
KSSTSVLYESHNKNSVA | WAGTRES | QQYHRLPLS: 1.44, 1.51, 1.41 (mean 1.45).
KSSQSVLYESPNKNSVA | WASTREF | QQYHRLPLS: 0.88, 0.95, 1.10 (mean 0.97).
KSSQSVLYESYNKNWGA | WASTRES | QQYHRLPLS: nd, nd, nd.
KSSQSVLYESANKNSVA | WACTRES | QQYHQLPLS: nd, nd, nd.
KFSQSVLYESSNKNSVA | WASTREN | QQYHRLPLS: -0.23, 0.14, -0.15 (mean -0.08).
KSSQSVLYESKNKNIVA | WASTDES | QQYHRLPLS: nd, 3.37, 3.45 (mean 3.41).
KSSQSVLYESFNKNSVA | RASTRES | QQYHRLPCS: nd, nd, nd.
KSSQSALYDSGNKNSVA | WASTRES | QQYHRLPLS: 0.56, 0.77, 0.69 (mean 0.68).
KSSQSVLYESVNKNSVA | WASTRES | QQYHRLPLS: 0.25, 0.83, 0.60 (mean 0.56).
KSSQSVLYESANKNSVA | WASTRES | QQYHRLPLS: 0.70, 0.80, 0.81 (mean 0.77).
KSSQSVLYESCNKNSVA | WRSTRES | QQYHRLPLS: nd, nd, 3.38.
PSSQSVLYESQNKNSVA | WASKRES | QQYHRLPLS: 4.45, nd, nd.
KSSQSVLYESCNKNSYA | AASTRES | QQYHRLPLS: nd, nd, nd.

For reference, the parent read 0.65 as the reference entry and 1.68 as a member of this library.